This is an account of results in PMC3794980, “Identification of Conserved and HLA Promiscuous DENV3 T-Cell Epitopes” (PLoS Neglected Tropical Diseases, 2013).

Protein sequences, listed by entry. Tags and fused reporters are not part of them. Residues count along the entry.
UniProt Q30154, 30-266: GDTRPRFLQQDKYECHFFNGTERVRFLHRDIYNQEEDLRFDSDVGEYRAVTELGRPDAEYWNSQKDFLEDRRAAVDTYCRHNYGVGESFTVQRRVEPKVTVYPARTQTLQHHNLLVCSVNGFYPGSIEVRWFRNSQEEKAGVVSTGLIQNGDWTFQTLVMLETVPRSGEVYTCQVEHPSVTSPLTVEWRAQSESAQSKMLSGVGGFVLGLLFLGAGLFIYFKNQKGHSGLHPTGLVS
UniProt P79483, 30-266: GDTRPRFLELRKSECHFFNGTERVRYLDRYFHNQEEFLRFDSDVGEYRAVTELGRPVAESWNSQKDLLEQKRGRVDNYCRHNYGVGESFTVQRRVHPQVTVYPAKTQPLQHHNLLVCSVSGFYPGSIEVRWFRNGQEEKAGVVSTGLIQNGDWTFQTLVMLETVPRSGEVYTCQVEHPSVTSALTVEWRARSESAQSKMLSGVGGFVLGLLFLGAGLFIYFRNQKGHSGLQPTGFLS

Like-named read-outs stand apart in the source and are kept apart here. Marks after values point to notes of the source that are not given here.

Experiment [1] relates to HLA of the TgM (A02, A24, B07, DR2, DR3, DR4). Nature of the experiment: HLA binding assays, summary of HLA affinity confirmed. Also on record: species or system human. The note with it: ND: non-determined.
Experiment [2] deals with HLA transgenic mice (A02, A24, B07, DR2, DR3 and DR4). Nature of the experiment: Immunogenicity screen in six HLA transgenic mice strains (summary). The class given is in vivo. As to conditions: IFN-γ ELISPOT in six TgM strains; Negative = none.
The target in experiment [3] is DRB1*0401 (Homo sapiens, UniProt P01903+P01911, A100K/A169T/F76Y/I96L/K127E/L162R/M171V/N62H/P40V/Q125Y/R42H/S133A/S149N/S66Y/V115G/V209L/W38E). Description: biochemical. Type of experiment: binding.
The target in experiment [4] is DRB1*1501 (Homo sapiens, UniProt P01903+P01911). Nature of the experiment: biochemical. The class given is binding.
Experiment [5] concerns the target DRB1*1101 (Homo sapiens, UniProt P01903+P01911, A100R/A169T/A87E/I96F/K41T/L162R/M171V/P40S/Q125H/Q178H/Q39Y/Q99D/R42S/S66Y/T262R/V115G/W38E). Description: biochemical. Type of experiment: binding.
The target in experiment [6] is DRB1*1302 (Homo sapiens, UniProt P01903+P01911, A100E/A169T/K41T/L162R/M171V/P40S/Q125H/Q178H/Q39Y/Q99D/R42S/S66N/T262R/V115G/W38E/Y61H). Description: biochemical. The class given is binding.
Experiment [7] deals with DRB1*0405 (Homo sapiens, UniProt P01903+P01911, A100R/A169T/D86S/F76Y/I96L/K127E/L162R/M171V/N62H/P40V/Q125Y/R42H/S133A/S149N/S66Y/V115G/V209L/W38E). Nature of the experiment: biochemical. The class given is binding. As to conditions: read-out: Binding Affinity (nM) DRB1*0405.
Experiment [8] has as its target DRB5*0101 (Homo sapiens, UniProt P01903+Q30154). Nature of the experiment: biochemical. Type of experiment: binding. The note with it: read-out: Binding Affinity (nM) DRB5*0101.
In experiment [9] the target is DRB1*0101 (Homo sapiens, UniProt P01903+P01911, A100R/D57E/F55L/F60I/F76Y/I96L/L162R/M171V/P40L/Q125E/R42F/V115G/Y59C). Nature of the experiment: biochemical. The class given is binding.
Experiment [10] concerns the target DRB4*0101 (Homo sapiens, UniProt P01903+P13762, G164S). Nature of the experiment: biochemical. The note with it: read-out: Binding Affinity (nM) DRB4*0101. The class given is binding.
Experiment [11] addresses DRB1*0802 (Homo sapiens, UniProt P01903+P01911, A100R/A103L/A169T/F76Y/H45Y/I96F/K41T/L162R/M171V/P40S/Q125H/Q178H/Q39Y/Q99D/R218S/R42G/S66Y/V115G/W38E). Nature of the experiment: biochemical. The class given is binding.
For experiment [12], the target named is DRB1*0901 (Homo sapiens, UniProt P01903+P01911, A100R/A103E/D57H/D86V/F55Y/F60I/F76Y/I96F/K127E/L162R/M171V/P40D/Q125H/Q99R/R33Q/R42F/S133A/S66N/T210M/V115G/W38K/Y107V/Y59G/Y89S). Nature of the experiment: biochemical. Type of experiment: binding.
Experiment [13] concerns the target DRB1*0701 (Homo sapiens, UniProt P01903+P01911, A100R/A102G/A103Q/D57E/D86V/E43K/F76Y/K127E/L162R/M171V/P40G/Q125H/Q99D/R33Q/R42Y/R54Q/S133A/S66F/T210M/V115G/Y107V/Y59L/Y89S). Description: biochemical. Type of experiment: binding.
Experiment [14] addresses DRB1*0404 (Homo sapiens, UniProt P01903+P01911, A100R/A169T/F76Y/I96L/K127E/L162R/M171V/N62H/P40V/Q125Y/R42H/S133A/S149N/S66Y/V209L/W38E). Nature of the experiment: biochemical. Type of experiment: binding.
Experiment [15] addresses DRB1*0301 (Homo sapiens, UniProt P01903+P01911, A100K/A102G/A103R/A169T/F55Y/I96L/K41T/L162R/M171V/P40S/Q125H/Q178H/Q39Y/R42S/S66N/T106N/T262R/W38E/Y61H). Description: biochemical. Type of experiment: binding.
For experiment [16], the target named is DRB3*0101 (Homo sapiens, UniProt P01903+P79483). Nature of the experiment: biochemical. The class given is binding. As to conditions: read-out: Binding Affinity (nM) DRB3*0101.
In experiment [17] the test system is HLA-DR4 (HLA-DRA1*0101; -DRB1*0401) transgenic mice. As to conditions: for Transgenic mice DR4 (ELISPOT): representative IFN-γ ELISPOT data, CD8-depleted splenocytes of HLA-DR4 TgM.
[18] abbreviates: read-out: Binding Affinity (nM) DRB1*1501.

As to “SPIINREGKVVGLYG [NS3_137–151, DENV3 NS3 15-mer overlapping library peptide]”, the “Binding assay (HLA to which affinity was found)” value in experiment [1] is listed as “DR2,DR3”. Further, the “TGM (HLA transgenic mice in which the peptide was immunogenic)” value (shortened to “TGM”) in experiment [2] is “DR3”.

Consider `CC[C@H](C)[C@H](NC(=O)[C@@H](NC(=O)[C@H](CC(C)C)NC(=O)[C@H](CC(N)=O)NC(=O)[C@H](CCCNC(=N)N)NC(=O)[C@H](CCCCN)NC(=O)[C@H](CCCCN)NC(=O)[C@H](Cc1ccccc1)NC(=O)[C@H](CCSC)NC(=O)[C@H](CCC(=O)O)NC(=O)[C@H](CCC(=O)O)NC(=O)[C@H](CCC(=O)O)NC(=O)[C@H](CC(C)C)NC(=O)[C@H](CCC(=O)O)NC(=O)[C@@H]1CCCN1)[C@@H](C)O)C(=O)O` [NS3 177-191], for which the IC50 was 7.07 µM in experiment [3]; 17000 nM in experiment [4]; 11900 nM in experiment [5]; 13800 nM in experiment [6]; over 20000 nM in experiment [7]; over 20000 nM in experiment [8]. For the same molecule, the IC50 in [9] is 6.35 µM; in experiment [10] it was over 20000 nM; in experiment [11] (read-out: Binding Affinity (nM) DRB1*0802), over 20000 nM; in [12], 14800 nM; in experiment [13] (read-out: Binding Affinity (nM) DRB1*0701), over 20000 nM; in experiment [14] (read-out: Binding Affinity (nM) DRB1*0404) it was over 20000 nM. This molecule also showed an IC50 in experiment [15] of 1.87 µM.

With `CSCC[C@H](NC(=O)[C@H](C)NC(=O)[C@H](CCSC)NC(=O)[C@H](CCC(N)=O)NC(=O)[C@@H](NC(=O)[C@@H](NC(=O)[C@H](CCSC)NC(=O)[C@@H]1CCCN1C(=O)[C@@H](NC(=O)[C@@H](NC(=O)[C@H](CC(=O)O)NC(=O)[C@H](Cc1c[nH]c2ccccc12)NC(=O)[C@@H]1CCCN1)C(C)C)C(C)C)C(C)C)[C@@H](C)O)C(=O)N[C@H](C(=O)N[C@@H](CC(=O)O)C(=O)N[C@H](C(=O)N[C@H](C(=O)O)[C@@H](C)O)[C@@H](C)O)[C@@H](C)O` [NS5 330-346], the IC50 in experiment [16] was over 20000 nM; in experiment [11] it was 4 nM; in experiment [13] it was 2460 nM.

Take PEVVVLGSQEGAMHT [Envelope 246-260]: in [17] (IFN-γ ELISPOT of splenocytes, HLA-DR4/IE transgenic mice, printed as value+spread, '-' = no value, distinct from ND), the “Transgenic mice DR4/IE” value is 25+0.

For the molecule NSYSGVEGEGLHKLGYI [NS5_501–517], the “Transgenic mice DR4 (ELISPOT)” value in [17] is 50+10 SFC per 1 million cells.

Turning to `CC[C@H](C)[C@H](NC(=O)[C@H](Cc1ccc(O)cc1)NC(=O)[C@H](CCC(N)=O)NC(=O)[C@H](CC(=O)O)NC(=O)[C@H](CC(N)=O)NC(=O)[C@H](CCC(=O)O)NC(=O)[C@H](CCCCN)NC(=O)[C@H](CCC(N)=O)NC(=O)[C@@H]1CCCN1C(=O)[C@@H](N)CC(N)=O)C(=O)N[C@@H](Cc1ccccc1)C(=O)N[C@H](C(=O)NCC(=O)N[C@@H](CCC(N)=O)C(=O)N1CCC[C@H]1C(=O)O)[C@@H](C)O` [NS3 465-479], the IC50 in experiment [3] is 11.8 µM; in experiment [4] (setting [18]), over 20000 nM; in [5] (read-out: Binding Affinity (nM) DRB1*1101), over 20000 nM; in experiment [6] (competitive inhibition of radiolabeled standard peptide, DRB1*1302, read-out: Binding Affinity (nM) DRB1*1302), 18100 nM; in experiment [7], over 20000 nM; in [8], over 20000 nM. In addition, the IC50 in experiment [9] is 6.75 µM; in experiment [10], over 20000 nM; in experiment [11] it was 9410 nM; in experiment [12] (competitive inhibition of radiolabeled standard peptide, DRB1*0901, read-out: Binding Affinity (nM) DRB1*0901), over 20000 nM; in experiment [13] it was 17000 nM; in [14], 9800 nM. This molecule also gave an IC50 in experiment [15] of 15.7 µM.

For “TDFAGKTVWFVPSIK [NS3_353–367, DENV3 NS3 15-mer overlapping library peptide]”, the “Binding assay (HLA to which affinity was found)” value in experiment [1] is reported as “Negative”. In experiment [2], the “TGM” value is listed as “DR2*”.

Turning to KIPGGAMYADDTAGWDT [NS5_523–539], in experiment [17], the “Transgenic mice DR4 (ELISPOT)” value was 44+15 SFC per 1 million cells.

Consider “PWDVVPMVTQMAMTDTT [NS5_330–346, DENV3 NS5 17-mer overlapping library peptide]”, for which the “Binding assay (HLA to which affinity was found)” value in experiment [1] is reported as “DR4”. Also, in experiment [2], the “TGM” value is “DR4”.

In the case of “IRYQTTATKSEHTGR [NS3_241–255, DENV3 NS3 15-mer overlapping library peptide]”, the “Binding assay (HLA to which affinity was found)” value in experiment [1] is reported as “DR4”. Also, in experiment [2], the “TGM” value is given as “DR4”.

As to “EEMFKKRNLTIMDLH [NS3_181–195, DENV3 NS3 15-mer overlapping library peptide]”, in experiment [1], the “Binding assay (HLA to which affinity was found)” value is given as “DR2”. Besides, the “TGM” value in experiment [2] is given as “DR2”.

Turning to “NEWITDFAGKTVWFV [NS3_349–363, DENV3 NS3 15-mer overlapping library peptide]”, the “specificity for DR2 molecule by binding assay” value in [4] is “confirmed”. For the same molecule, the “Binding assay (HLA to which affinity was found)” value in experiment [1] is “DR2”. In addition, the “TGM” value in [2] is on record as “DR2”.

Consider `CC[C@H](C)[C@H](NC(=O)CNC(=O)[C@H](CO)NC(=O)[C@H](CCCCN)NC(=O)[C@@H](N)CCCCN)C(=O)N[C@H](C(=O)N[C@@H](CCC(=O)O)C(=O)N[C@H](C(=O)N[C@@H](CC(=O)O)C(=O)N[C@@H](CCCNC(=N)N)C(=O)N[C@H](C(=O)N[C@@H](CCC(=O)O)C(=O)N[C@@H](C)C(=O)N[C@@H](CCCCN)C(=O)N[C@@H](CCC(=O)O)C(=O)NCC(=O)N[C@@H](CC(C)C)C(=O)O)[C@@H](C)O)C(C)C)[C@@H](C)O` [NS5 29-45], for which the IC50 in [3] was 1.39 µM; in experiment [4] (setting [18]), over 20000 nM; in [5], 289 nM; in [6], 1930 nM; in [7] it was over 20000 nM; in [8] it was over 20000 nM. Further, the IC50 in [9] is 7.22 µM; in [10] it was over 20000 nM; in experiment [11], 5710 nM; in experiment [12] (read-out: Binding Affinity (nM) DRB1*0901), over 20000 nM; in experiment [14], 7090 nM; in experiment [15], 0.08 µM.

For EAAAIFMTATPPGTA [NS3_309–323], the “Transgenic mice DR4 (ELISPOT)” value in [17] is 354+40 SFC per 1 million cells.

Regarding “WNSGNEWITDFAGKT [NS3_345–359, DENV3 NS3 15-mer overlapping library peptide]”, the “Binding assay (HLA to which affinity was found)” value in experiment [1] is “Negative”. For the same molecule, the “TGM” value in [2] is “DR2*”.

For IVSSVNMVSRLLLNRFT [NS5 227-243], the “Transgenic mice DR4/IE” value in [17] (IFN-γ ELISPOT of splenocytes from peptide-immunized HLA-DR4 transgenic mice, value printed as mean+spread, '-' = no response listed) is 128+16.

Turning to “KGLPIRYQTTATKSE [NS3_237–251, DENV3 NS3 15-mer overlapping library peptide]”, the “Binding assay (HLA to which affinity was found)” value in experiment [1] is listed as “DR2, DR4”. In experiment [2], the “TGM” value was “DR4”.
